Experimental findings from patent US20080293048A1, “METHODS AND KITS BASED ON UGT1A7 PROMOTER POLYMORPHISM” (priority 2004, published 2008) are described below.

Protein sequences, listed by entry. Tags and fused reporters are not part of them. Residues count along the entry.
UniProt P22309, 26-533: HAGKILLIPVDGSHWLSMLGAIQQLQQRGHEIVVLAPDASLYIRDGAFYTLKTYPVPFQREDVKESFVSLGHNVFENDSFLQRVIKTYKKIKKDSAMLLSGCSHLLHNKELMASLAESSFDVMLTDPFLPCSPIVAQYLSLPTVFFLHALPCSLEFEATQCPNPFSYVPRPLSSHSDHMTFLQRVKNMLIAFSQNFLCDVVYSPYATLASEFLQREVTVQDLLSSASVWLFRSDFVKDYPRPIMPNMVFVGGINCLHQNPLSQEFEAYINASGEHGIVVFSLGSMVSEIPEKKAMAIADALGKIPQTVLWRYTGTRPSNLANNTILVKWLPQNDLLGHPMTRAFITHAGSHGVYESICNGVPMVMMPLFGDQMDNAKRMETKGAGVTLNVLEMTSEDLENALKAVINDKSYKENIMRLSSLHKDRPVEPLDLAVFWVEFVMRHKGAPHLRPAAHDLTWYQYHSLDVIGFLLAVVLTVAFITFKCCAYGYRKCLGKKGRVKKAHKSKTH
UniProt P19224, 27-532: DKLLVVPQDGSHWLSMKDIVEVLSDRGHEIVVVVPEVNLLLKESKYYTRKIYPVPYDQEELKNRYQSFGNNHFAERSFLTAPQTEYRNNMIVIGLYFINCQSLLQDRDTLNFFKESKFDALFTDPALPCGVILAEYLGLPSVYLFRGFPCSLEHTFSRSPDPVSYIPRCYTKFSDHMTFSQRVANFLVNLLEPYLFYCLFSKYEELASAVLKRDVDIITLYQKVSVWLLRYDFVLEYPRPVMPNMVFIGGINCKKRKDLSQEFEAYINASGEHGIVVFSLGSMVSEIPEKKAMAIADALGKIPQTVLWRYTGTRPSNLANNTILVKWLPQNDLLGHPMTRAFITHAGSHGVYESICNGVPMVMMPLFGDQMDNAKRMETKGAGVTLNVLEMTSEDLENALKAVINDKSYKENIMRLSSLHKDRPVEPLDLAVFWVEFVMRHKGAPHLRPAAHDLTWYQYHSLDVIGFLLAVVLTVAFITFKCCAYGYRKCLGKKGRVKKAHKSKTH

SMILES strings stand for the structures.

Data set [1] has as its target T1, UGT1A7 (Homo sapiens, UniProt Q9HAW7).
T1 sequence (Q9HAW7 26-530): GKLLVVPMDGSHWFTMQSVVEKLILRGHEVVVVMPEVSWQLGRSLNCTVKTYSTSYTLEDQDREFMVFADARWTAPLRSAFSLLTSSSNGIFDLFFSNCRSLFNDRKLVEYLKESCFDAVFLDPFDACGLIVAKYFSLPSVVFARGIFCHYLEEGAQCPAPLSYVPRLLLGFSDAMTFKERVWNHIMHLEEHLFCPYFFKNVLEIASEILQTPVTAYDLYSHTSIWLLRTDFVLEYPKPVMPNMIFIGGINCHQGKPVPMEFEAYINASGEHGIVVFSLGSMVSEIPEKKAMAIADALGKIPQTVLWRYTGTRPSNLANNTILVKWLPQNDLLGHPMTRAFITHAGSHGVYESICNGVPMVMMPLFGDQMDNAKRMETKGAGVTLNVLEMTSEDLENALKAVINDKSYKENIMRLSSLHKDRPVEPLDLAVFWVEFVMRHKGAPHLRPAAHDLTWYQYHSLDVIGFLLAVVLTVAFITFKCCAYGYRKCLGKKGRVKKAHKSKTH

Data set [2] deals with UGT1A1 (Homo sapiens, UniProt P22309).
In data set [3] the target is UGT1A6 (Homo sapiens, UniProt P19224).
Data set [4] deals with UGT1A10 (Homo sapiens, UniProt Q9HAW8).

Take `CCc1c2c(nc3ccc(O)cc13)-c1cc3c(c(=O)n1C2)COC(=O)[C@]3(O)CC` [SN-38, 7-ethyl-10-hydroxycamptothecin]: the “SN-38 glucuronidation by isoform” value in data set [1], in data set [2], in data set [3] and in data set [4] was “relevant isoforms” throughout. In addition, the “specific UGT activity with SN-38, UGT1A7 higher than UGT1A1, UGT1A6 and UGT1A10” value in data set [1] was found to be 5 fold.
